pKi: −log10 of the molar value.
Molecular target: Tissue-type plasminogen activator (Homo sapiens, UniProt P00750)
Experiment: Inhibitory activity against human tissue-type plasminogen activator expressed as dissociation constant

Chains of the proteins cited; added tags and fusions are not shown.
UniProt P00750, whole entry: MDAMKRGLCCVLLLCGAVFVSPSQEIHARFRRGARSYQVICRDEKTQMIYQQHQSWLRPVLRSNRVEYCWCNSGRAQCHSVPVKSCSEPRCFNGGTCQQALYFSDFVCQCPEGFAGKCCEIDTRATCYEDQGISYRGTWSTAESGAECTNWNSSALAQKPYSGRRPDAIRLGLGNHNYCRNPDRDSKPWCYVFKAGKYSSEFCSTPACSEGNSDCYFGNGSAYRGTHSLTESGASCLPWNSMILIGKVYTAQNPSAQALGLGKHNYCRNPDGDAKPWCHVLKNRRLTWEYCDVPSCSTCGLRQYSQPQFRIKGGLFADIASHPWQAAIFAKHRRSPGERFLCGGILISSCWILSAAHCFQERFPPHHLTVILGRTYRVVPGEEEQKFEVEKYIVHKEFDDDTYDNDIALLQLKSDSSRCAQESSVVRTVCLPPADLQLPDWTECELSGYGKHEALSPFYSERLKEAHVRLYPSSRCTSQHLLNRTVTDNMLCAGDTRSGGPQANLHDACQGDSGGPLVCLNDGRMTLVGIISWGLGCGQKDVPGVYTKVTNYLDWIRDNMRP

## N=C(N)c1ccccc1 [BENZAMIDINE]
  pKi: 3.04
